Here are results for six compounds from patent publication US20020128256A1, “Methods for the treatment or prevention of inflammatory diseases characterized by abnormal cell proliferation” (priority 1997, published 2002).

The subject of experiment [1] is NIH 3T3 mouse fibroblast cells. The experiment is described as follows: Mitogenic Assay (mitogen-induced cell proliferation). It counts as cell-based. The settings on record: for IC50: NIH3T3, read-out: Mitogenic Assay IC50; for inhibition at 10 µM: NIH3T3, read-out: Mitogenic Assay Inhibition (%).
A further experiment deals with A549. Description: SRB antiproliferative assay, A549. Format: cell-based. The settings on record: Homo sapiens, A549, read-out: SRB IC50.

A word on the IC50: it is the concentration needed to halve the response being measured. One may read the inhibition as the change of the read-out against control, counted positive when it falls. For the compound `O=C1CC(c2ccccc2)(c2ccccc2)c2ccccc21` [Compound 2, 3,3-Diphenylindanone], in experiment [1], the IC50 is 1300 nM and the inhibition at 10 µM was 99%.

Turning to `O/N=C1\CC(c2ccccc2)(c2ccccc2)c2ccccc21` [Compound 4, 1-N-Oxime-3,3-Diphenylindane], in experiment [1], the 50% inhibitory concentration (IC50) worked out at 2600 nM and the inhibition at 10 µM worked out at 99%. Also, the IC50 with A549 was determined as 8500 nM. As to `CC(=O)OC1CC(c2ccccc2)(c2ccccc2)c2ccccc21` (centres unmarked) [Compound 7, 1-Acetoxy-3,3-diphenylindane], in experiment [1], the IC50 came to 3400 nM and the inhibition at 10 µM came out at 98%.

As for `N#CCC1C(=O)c2ccccc2C1(c1ccccc1)c1ccccc1` (centres unmarked) [Compound 9, 2-cyanomethyl-3,3-diphenylindanone], the inhibition at 10 µM in experiment [1] was found to be 45%.

Take `NC(=O)CC1C(=O)c2ccccc2C1(c1ccccc1)c1ccccc1` (centres unmarked) [Compound 12, 2-Acetamide-3,3-diphenylindanone]: the inhibition at 10 µM in experiment [1] is 31%. Take `O=C1c2ccccc2C(c2ccccc2)(c2ccccc2)C1CCCO` (centres unmarked) [Compound 19, 3-(3′,3′-diphenyl-2′-indanyl-1′-one)propanol]: in experiment [1], the IC50 was 1500 nM and the inhibition at 10 µM came out at 99%.
